Measurements reported in patent publication US20240285596A1, “SOLID DOSAGE FORMS AND DOSING REGIMENS COMPRISING (2R,3S,4S,5R)-4-[[3-(3,4-DIFLUORO-2-METHOXY-PHENYL)-4,5-DIMETHYL-5-(TRIFLUOROMETHYL) TETRAHYDROFURAN-2-CARBONYL]AMINO]PYRIDINE-2-CARBOXAMIDE” (VERTEX PHARMACEUTICALS INCORPORATED, priority 2021, published 2024).

Tested on: subjects with pain following bunionectomy
Test: Randomized, double-blind, placebo-controlled study of efficacy and safety in subjects with pain following bunionectomy
Settings: Compound 1 high-dose group (100 mg first dose, then 50 mg q12 h); HB/APAP group (5 mg/325 mg q6 h)

COc1c([C@H]2[C@H](C(=O)Nc3ccnc(C(N)=O)c3)O[C@@](C)(C(F)(F)F)[C@H]2C)ccc(F)c1F (single isomer, unassigned) [Compound 1]
Incidence of adverse event headache: 8%
Incidence of adverse event nausea: 8%
